The test system of assay [1] is alpha1 -adrenergic receptors. To be noted: 3H-prazosin; table head 1nM (method: 0.5 nM); rat cerebral cortex membranes.
Assay [2] concerns β-adrenergic receptors. To be noted: 3H-dihydroalprenolol 1nM; rat cerebral cortex membranes.

Counter-ions that a name gives are not always drawn.

Turning to `NC[C@H](O)c1ccc(O)c(O)c1` [norepinephrine, reference compound], the “Displacement activity at α1-adrenergic receptors” value in assay [1] turned out to be 900.
`Cc1cc(C(=O)O[C@H]2C[C@H]3CC[C@@H](C2)N3C)no1` [Compound 8, 5-methylisoxazole-3-carboxylic acid 3-(endo-8-methyl-8-azabicyclo[3,2,1]octyl) ester hydrochloride]: in assay [2], the “Displacement activity at β-adrenergic receptors” value was “inactive”.
Turning to `Cc1cc(C(=O)O[C@H]2C[C@H]3CC[C@@H](C2)N3C)on1` [Compound 5, 3-methylisoxazole-5-carboxylic acid 3-(endo-8-methyl-8-azabicyclo[3,2,1]octyl) ester hydrochloride], the “Displacement activity at β-adrenergic receptors” value in assay [2] is “inactive”.
Turning to `CN1[C@@H]2CC[C@H]1C[C@@H](OC(=O)c1c[nH]c3ccccc13)C2` [R, 3-endo-tropanyl indol-3-yl carboxylate, reference compound], the “Displacement activity at α1-adrenergic receptors” value in assay [1] was “inactive”. Besides, the “Displacement activity at β-adrenergic receptors” value in assay [2] was “inactive”.

The record behind these values is patent publication US4988691A (priority 1989, dated 1991).
